Test results taken from patent US7166618B2, “Nitrosated and nitrosylated cyclooxygenase-2 inhibitors, compositions and methods of use” (NitroMed, Inc., priority 1999, dated 2007).

Target: T1, ovine COX-2 (Ovis aries, UniProt P79208)
T1 sequence (P79208 17-603): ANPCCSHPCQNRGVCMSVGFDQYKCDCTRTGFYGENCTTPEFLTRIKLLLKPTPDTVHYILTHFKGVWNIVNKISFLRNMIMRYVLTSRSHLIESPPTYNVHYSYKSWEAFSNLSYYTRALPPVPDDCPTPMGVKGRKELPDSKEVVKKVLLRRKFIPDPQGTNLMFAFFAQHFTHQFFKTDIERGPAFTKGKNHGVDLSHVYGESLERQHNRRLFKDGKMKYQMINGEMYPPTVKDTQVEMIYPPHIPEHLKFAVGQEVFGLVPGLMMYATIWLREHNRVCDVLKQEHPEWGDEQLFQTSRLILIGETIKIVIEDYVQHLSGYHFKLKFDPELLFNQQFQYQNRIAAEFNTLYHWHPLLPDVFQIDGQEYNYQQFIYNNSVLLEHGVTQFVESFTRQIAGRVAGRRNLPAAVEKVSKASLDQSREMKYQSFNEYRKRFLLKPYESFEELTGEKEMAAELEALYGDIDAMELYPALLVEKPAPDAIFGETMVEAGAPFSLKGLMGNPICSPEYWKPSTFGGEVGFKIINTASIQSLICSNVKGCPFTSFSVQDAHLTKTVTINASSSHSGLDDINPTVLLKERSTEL
Type: biochemical

Question: With “1-(3-(4-Fluorophenyl)-7-(nitrooxymethyl)(3a-hydroimidazolo(1,2-a)pyridin-2-yl))-4-(methylsulfonyl)benzene [Example 5b]” as the substance, how does the IC50 read?
Answer: 33 µM
